Results as given in patent publication EP1790655B1, “Biologically active peptides” (CMS Peptides Patent Holding Company Limited, priority 2001, dated 2003).

What was measured:
mononuclear phagocyte = experiment: phagocytotic function of mononuclear phagocyte in mice with S180 sarcoma; type: in vivo, BALB/c mice; details: 20mg/kg i.p. once per day from the day after transplanting; transplanted S180 sarcoma
T lymphocyte = T lymphocyte transformation in mice with ascitic fluid type liver cancer H22; type: in vivo, BALB/c mice; details: 20mg/kg i.p. once per day
[1] = tested on: Sheep red blood cells (SRBC); experiment: humoral immunity (SRBC hemolysis index) of mice bearing transplanted B16 melanoma; type: in vivo, C57BL/6 mice; details: 20mg/kg i.p. once per day from the day after transplanting, SRBC on the 27th day
NK cell = NK cell activity in mice with ascitic fluid type liver cancer H22; type: in vivo, BALB/c mice; details: 20mg/kg i.p. once per day

O=P1(N(CCCl)CCCl)NCCCO1 (stereo not shown) [Cyclo-phos phamide, Cyclophosphamide]
Phagocytosis index (mononuclear phagocyte): 5.92±2.47
Stimulation index (T lymphocyte): 1.01±0.23
Hemolysis index [1]: 20.7±19.1
NK activity index (NK cell): 16.5±7.2 %
